Experimental data taken from article PMC12426595 (Cancer Research Communications, 2025).
Marks after values point to notes of the source that are not given here.

The chains behind the UniProt entries cited, without tags or fusion partners.
UniProt Q9NPD5, whole entry: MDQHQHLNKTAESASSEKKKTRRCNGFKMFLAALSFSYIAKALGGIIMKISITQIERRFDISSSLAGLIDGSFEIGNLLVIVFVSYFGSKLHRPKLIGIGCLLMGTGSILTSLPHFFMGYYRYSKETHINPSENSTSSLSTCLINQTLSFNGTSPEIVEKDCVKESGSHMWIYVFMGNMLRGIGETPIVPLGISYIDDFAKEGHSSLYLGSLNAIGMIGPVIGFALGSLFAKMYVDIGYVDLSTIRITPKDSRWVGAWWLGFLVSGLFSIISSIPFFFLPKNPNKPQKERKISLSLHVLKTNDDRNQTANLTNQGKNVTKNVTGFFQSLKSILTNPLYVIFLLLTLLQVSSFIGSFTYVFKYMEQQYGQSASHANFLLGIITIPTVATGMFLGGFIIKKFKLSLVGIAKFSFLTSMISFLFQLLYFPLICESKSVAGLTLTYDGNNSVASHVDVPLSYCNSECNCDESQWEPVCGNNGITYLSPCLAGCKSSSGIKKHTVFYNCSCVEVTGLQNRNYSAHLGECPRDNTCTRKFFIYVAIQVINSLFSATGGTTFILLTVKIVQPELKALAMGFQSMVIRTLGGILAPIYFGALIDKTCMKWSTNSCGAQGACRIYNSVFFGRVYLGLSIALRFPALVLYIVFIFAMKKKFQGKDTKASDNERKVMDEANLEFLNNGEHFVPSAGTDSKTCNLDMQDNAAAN
UniProt Q06187, whole entry: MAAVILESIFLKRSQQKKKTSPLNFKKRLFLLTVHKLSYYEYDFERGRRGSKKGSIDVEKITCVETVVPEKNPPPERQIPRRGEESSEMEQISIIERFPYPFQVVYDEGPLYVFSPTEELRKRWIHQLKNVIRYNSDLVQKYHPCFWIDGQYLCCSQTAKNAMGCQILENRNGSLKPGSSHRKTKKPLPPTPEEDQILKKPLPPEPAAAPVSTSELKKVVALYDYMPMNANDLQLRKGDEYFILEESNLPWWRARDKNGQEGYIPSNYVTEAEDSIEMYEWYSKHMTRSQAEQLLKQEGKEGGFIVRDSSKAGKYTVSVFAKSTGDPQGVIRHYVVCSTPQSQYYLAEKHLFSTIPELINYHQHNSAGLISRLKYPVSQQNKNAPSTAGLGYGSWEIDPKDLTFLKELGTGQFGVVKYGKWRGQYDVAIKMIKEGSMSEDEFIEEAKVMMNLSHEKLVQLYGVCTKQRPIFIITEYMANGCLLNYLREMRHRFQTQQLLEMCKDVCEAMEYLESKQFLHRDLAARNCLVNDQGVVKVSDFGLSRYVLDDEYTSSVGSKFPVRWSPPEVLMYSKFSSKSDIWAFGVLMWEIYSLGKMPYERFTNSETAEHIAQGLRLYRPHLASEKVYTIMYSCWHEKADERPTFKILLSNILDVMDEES
UniProt P51813, whole entry: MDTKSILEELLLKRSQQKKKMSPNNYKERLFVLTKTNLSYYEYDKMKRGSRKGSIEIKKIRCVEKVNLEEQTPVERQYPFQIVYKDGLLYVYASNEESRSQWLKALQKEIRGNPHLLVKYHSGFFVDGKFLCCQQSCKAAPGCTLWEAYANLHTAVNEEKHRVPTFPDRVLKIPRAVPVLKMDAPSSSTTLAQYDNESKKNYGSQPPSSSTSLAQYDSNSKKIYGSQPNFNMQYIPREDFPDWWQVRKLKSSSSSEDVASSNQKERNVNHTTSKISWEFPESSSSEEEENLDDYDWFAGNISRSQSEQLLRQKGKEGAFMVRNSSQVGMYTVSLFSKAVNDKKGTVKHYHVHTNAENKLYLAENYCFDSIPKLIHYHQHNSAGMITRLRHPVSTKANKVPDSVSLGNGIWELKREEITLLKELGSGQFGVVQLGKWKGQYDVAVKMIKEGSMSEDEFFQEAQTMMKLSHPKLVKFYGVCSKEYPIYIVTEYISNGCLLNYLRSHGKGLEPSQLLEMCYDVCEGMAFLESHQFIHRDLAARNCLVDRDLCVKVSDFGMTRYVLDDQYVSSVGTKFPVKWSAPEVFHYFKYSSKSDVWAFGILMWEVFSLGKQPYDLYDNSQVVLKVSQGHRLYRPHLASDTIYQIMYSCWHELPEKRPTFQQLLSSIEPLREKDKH
UniProt Q9Y6L6, whole entry: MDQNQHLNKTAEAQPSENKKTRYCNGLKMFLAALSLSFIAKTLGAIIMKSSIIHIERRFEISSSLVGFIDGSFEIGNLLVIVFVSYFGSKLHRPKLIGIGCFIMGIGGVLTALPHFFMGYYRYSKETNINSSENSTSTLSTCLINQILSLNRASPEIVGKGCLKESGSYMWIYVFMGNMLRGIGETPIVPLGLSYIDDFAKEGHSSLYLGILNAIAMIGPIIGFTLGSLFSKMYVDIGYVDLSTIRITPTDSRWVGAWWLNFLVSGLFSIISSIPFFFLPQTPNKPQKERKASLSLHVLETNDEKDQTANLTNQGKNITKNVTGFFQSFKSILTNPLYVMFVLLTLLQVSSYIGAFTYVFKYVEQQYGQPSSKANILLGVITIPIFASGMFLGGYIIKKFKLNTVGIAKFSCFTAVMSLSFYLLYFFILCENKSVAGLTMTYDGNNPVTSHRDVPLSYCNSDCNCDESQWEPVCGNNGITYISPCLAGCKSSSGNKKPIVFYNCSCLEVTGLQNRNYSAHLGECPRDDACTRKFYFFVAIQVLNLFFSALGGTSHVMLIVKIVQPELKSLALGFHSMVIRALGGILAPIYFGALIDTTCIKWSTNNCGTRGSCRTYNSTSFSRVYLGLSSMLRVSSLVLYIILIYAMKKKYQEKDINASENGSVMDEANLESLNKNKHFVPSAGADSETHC

How the values were obtained:
[1] = target: T1, OATP1B3 (Homo sapiens, UniProt Q9NPD5); experiment: Transport inhibition assay, OATP1B3; conditions: read-out: IC50 OATP1B3 transport inhibition; 8-FcA as test substrate; HEK293 cells
[2] = target: recombinant human BTK (Homo sapiens, UniProt Q06187); experiment: HotSpot Kinase Assay, BTK
[3] = system: OATP1B-type transporters; experiment: Basic model DDI assessment (Cmax/IC50 ratios and R values); conditions: OATP1B-type transporter inhibition
[4] = system: BTK; experiment: KINOMEscan binding, BTK; conditions: TL-895 500 nmol/L
[5] = target: BTK-NanoLuc Fusion Vector in HEK293 cells (Homo sapiens, UniProt Q06187); experiment: NanoBRET intracellular binding assay, BTK
[6] = target: BMX-NanoLuc Fusion Vector in HEK293 cells (Homo sapiens, UniProt P51813); experiment: NanoBRET intracellular binding assay, BMX
[7] = target: T2, OATP1B1 (Homo sapiens, UniProt Q9Y6L6); experiment: Transport inhibition assay, OATP1B1; conditions: read-out: IC50 OATP1B1 transport inhibition; 8-FcA as test substrate; HEK293 cells
[8] = system: BMX; experiment: KINOMEscan binding, BMX; conditions: TL-895 500 nmol/L
[9] = target: T2, OATP1B1; experiment: Competitive counterflow transport, OATP1B1; conditions: HEK293 cells overexpressing OATP1B1
[10] = target: recombinant human BMX (Homo sapiens, UniProt P51813); experiment: HotSpot Kinase Assay, BMX
[11] = target: T1, OATP1B3; experiment: Competitive counterflow transport, OATP1B3; conditions: HEK293 cells overexpressing OATP1B3
[12] = In vivo pharmacokinetics of TL-895 in mice; conditions: for increase in systemic exposure (AUC), CYP3A(−/−) vs wild type: FVB
[13] = system: LYN kinase; experiment: KdELECT assay, LYN kinase; conditions: relevant range of concentrations
[14] = C57BL/6 WT, female, 3 mg/kg oral
[15] = C57BL/6 WT, female, 10 mg/kg oral
[16] = C57BL/6 WT, male, 10 mg/kg oral
[17] = FVB CYP3A(−/−), female, 3 mg/kg oral
[18] = FVB CYP3A(−/−), male, 3 mg/kg oral

C=CC(=O)N1CCC(F)(CNc2ncnc(N)c2-c2ccc(Oc3ccccc3)cc2)CC1
IC50 [1]: 4090 nM | EC50 ([2]; read-out: EC50 against BTK (HotSpot Kinase Assay), 10 μmol/L ATP): 3.02 nM | IC50 ([2]; read-out: IC50 BTK, kinase assay, in abstract): 3.02 nM | R values [3]: ≤ 1.1 | %Ctrl, BTK [4]: 0.3% | EC50 ([5]; read-out: EC50 BTK (NanoBRET intracellular binding), HEK293 cells, 60 minutes): 6.8 nM | IC50 ([5]; read-out: IC50 BTK, BRET assay, in abstract): 6.8 nM | EC50 ([6]; read-out: EC50 BMX (NanoBRET intracellular binding), HEK293 cells, 60 minutes): 1.6 nM | IC50 ([6]; read-out: IC50 BMX, BRET assay, in abstract): 1.6 nM | IC50 [7]: 3670 nM | %Ctrl, BMX [8]: 3.9% | EβG efflux in competitive counterflow (substrate status), OATP1B1 [9]: induces EβG efflux | EC50 ([10]; read-out: EC50 against BMX (HotSpot Kinase Assay), 10 μmol/L ATP): 0.53 nM | IC50 ([10]; read-out: IC50 BMX, kinase assay, in abstract): 0.53 nM | EβG efflux in competitive counterflow (substrate status), OATP1B3 [11]: but not by OATP1B3 | AUC [12, 14]: 110 ± 49.7 ng·h/mL | Cmax [12, 14]: 237 ± 96.3 ng/mL | AUC [12, 15]: 869 ± 75.0 ng·h/mL | Cmax [12, 15]: 509 ± 62.2 ng/mL | AUC ([12]; C57BL/6 WT, male, 3 mg/kg oral): 95.7 ± 9.55 ng·h/mL | Cmax ([12]; C57BL/6 WT, male, 3 mg/kg oral): 122 ± 31.6 ng/mL | AUC [12, 16]: 693 ± 94.2 ng·h/mL | Cmax [12, 16]: 276 ± 36.5 ng/mL | AUC [12, 17]: 1,130 ± 78.8****^, #### ng × h/mL | Cmax [12, 17]: 345 ± 49.8***^, #### ng/mL | AUC [12, 18]: 571 ± 72.1 ng·h/mL | Cmax [12, 18]: 181 ± 13.6 ng/mL | AUC ([12]; FVB WT, female, 3 mg/kg oral): 246 ± 16.1 ng·h/mL | Cmax ([12]; FVB WT, female, 3 mg/kg oral): 89.3 ± 10.0 ng/mL | AUC ([12]; FVB WT, male, 3 mg/kg oral): 318 ± 40.0 ng·h/mL | Cmax ([12]; FVB WT, male, 3 mg/kg oral): 96.7 ± 9.15 ng/mL | AUC ([12]; NSG WT, female, 3 mg/kg oral): 414 ± 17.5 ng·h/mL | Cmax ([12]; NSG WT, female, 3 mg/kg oral): 176 ± 19.3 ng/mL | AUC ([12]; NSG WT, female, 10 mg/kg oral): 1,220 ± 86.9 ng × h/mL | Cmax ([12]; NSG WT, female, 10 mg/kg oral): 279 ± 37.1 ng/mL | AUC ([12]; NSG WT, male, 3 mg/kg oral): 395 ± 131 ng·h/mL | Cmax ([12]; NSG WT, male, 3 mg/kg oral): 190 ± 32.3 ng/mL | AUC ([12]; NSG WT, male, 10 mg/kg oral): 681 ± 55.8 ng·h/mL | Cmax ([12]; NSG WT, male, 10 mg/kg oral): 254 ± 28.6 ng/mL | increase in systemic exposure (AUC), CYP3A(−/−) vs wild type ([12]; female mice, 3 mg/kg oral): 4.6 fold | increase in systemic exposure (AUC), CYP3A(−/−) vs wild type ([12]; male mice, 3 mg/kg oral, 3 mg/kg): 1.8 fold | inhibition of LYN kinase [13]: insensitive to inhibition
